Reference: patent US11285169B2, “Methods for modulating chemotherapeutic cytotoxicity” (The United States of America, as represented by the …, priority 2013, dated 2022)

Assays:
WT Jurkat cells = assay: CellTiter-Glo viability screen of 1913 chemotherapeutic agents, wild-type Jurkat cells; conditions: 48 hours, 10^-9 to 10^-4 M
[1] = test system: CD47 deficient (CD47 KO) Jurkat T cells; assay: CellTiter-Glo viability screen of 1913 chemotherapeutic agents, CD47 deficient Jurkat cells; conditions: 48 hours

In the case of 4-Demethyl-epipodophyllotoxin, the “Maximal Response WT (RLU)” value (WT Jurkat cells) is reported as 17.735 RLU, the “Maximal Response CD47 KO (RLU)” value ([1]; CD47 KO Jurkat T cells, 10^-9 to 10^-4 M, CellTiter-Glo) is reported as 78.185 RLU and the “Δ Maximal Response CD47KO-WT” value ([1]; difference CD47 KO minus WT Jurkat cells) is reported as 60.45.
